Assay results: article PMC11982464, “Structural insight into the catalytic mechanism of the bifunctional enzyme L-fucokinase/GDP-fucose pyrophosphorylase” (The Journal of Biological Chemistry, 2025)

System: Nc1ncnc2c1ncn2[C@@H]1O[C@H](COP(=O)(O)OP(=O)(O)OP(=O)(O)O)[C@@H](O)[C@H]1O
Test: purified protein
Conditions: Hill fit (sigmoidal), co-substrate L-fucose, 50 mM Hepes pH 7.5, 2 mM MnCl2

| Substance | Km [mM] | kcat [s⁻¹] | kcat/Km [M⁻¹ s⁻¹] | Km (fucokinase site) [mM] | kcat (fucokinase site) [s⁻¹] | kcat/Km (fucokinase site) [M⁻¹ s⁻¹] |
| --- | --- | --- | --- | --- | --- | --- |
| FKP-CTD (Bacteroides fragilis) | 4.4 ± 0.5 | 2.6 | 600 |  |  |  |
| FKP-FL (L-fucokinase/GDP-β-L-fucose pyrophosphorylase, full length) (Bacteroides fragilis) |  |  |  | 1.8 ± 0.1 | 3.8 | 2100 |
